The values that follow come from US7183319B2 (priority 2000, dated 2007).

This assay deals with mushroom tyrosinase. As to conditions: oximetry, compared with tyrosine methyl ester.

In the case of “Methyl-2-di(2chloroethyl)aminocarbonylamino-3-(4-hydroxyphenyl)proponoate”, the “quality as tyrosinase substrate / oxidation rate in words” value is “good substrates”.
